{"source": "PubChem BioAssay AID2205", "about": "(University of Pittsburgh Molecular Library Screening Center, 2009)", "note": "This is a selection; strong and weak results do not stand in their true shares. Some of these compounds have results that are not shown, active ones among them. Calls of active or inactive are those of the source.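 The calls were made as follows: active = plate Z-score above 3 for both tubulin-high and condensed-nucleus cell shares, with cell loss under 80%, at 10 µM; inactive = the rest, inconclusive results apart.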"}
{"test": "microtubule stabilizers in HeLa cells, primary screen, imaging, high-content imaging (AID 2205)", "details": "HeLa tubulin immunostaining HCS, 24 h; at 10 µM; hits give high values; share of cells brighter than vehicle mean+2SD"}
{"smiles": "COc1cccc(C(=O)NCC2(N3CCCCC3)CCCCC2)c1", "% tubulin-high responders": "inactive: 3.88%"}
{"smiles": "CN(C)c1cccc(C(=O)NCC2(N(C)C)CCCCC2)c1", "% tubulin-high responders": "inactive: 3.93%"}
{"smiles": "O=C(OC1CN2CCC1CC2)C(CO)(c1ccccc1)c1ccccc1", "note": "(centres undefined)", "% tubulin-high responders": "inactive: 2.96%"}
{"smiles": "CC(C)N1C(=O)CC2(CCN(CCOC(=O)C(O)(c3ccccc3)c3ccccc3)CC2)C1=O", "% tubulin-high responders": "inactive: 2.01%"}
{"smiles": "O=C(NCC1(N2CCCCC2)CCCCC1)c1cc([N+](=O)[O-])ccc1Cl", "% tubulin-high responders": "inactive: 2.32%"}
{"smiles": "C=CCN1CCN(CCOC(=O)C(O)(c2ccccc2)c2ccccc2)CC1", "% tubulin-high responders": "inactive: 1.08%"}
{"smiles": "CCN1CCCC(OC(=O)C2(O)c3ccccc3C=Cc3ccccc32)C1", "note": "(centres undefined)", "% tubulin-high responders": "inactive: 2.97%"}
{"smiles": "CN(C)C1CCCC1OC(=O)C(O)(c1ccccc1)c1ccccc1", "note": "(centres undefined)", "% tubulin-high responders": "inactive: 3.95%"}
{"smiles": "Cc1ccccc1C(=O)NCC1(N2CCCCC2)CCCCC1", "% tubulin-high responders": "inactive: 1.55%"}
